# From PubChem BioAssay AID1779 (Sanford-Burnham Center for Chemical Genomics, 2009)
# Protein sequences, listed by entry. Tags and fused reporters are not part of them.
# UniProt Q9Y2R2, whole entry, looked up: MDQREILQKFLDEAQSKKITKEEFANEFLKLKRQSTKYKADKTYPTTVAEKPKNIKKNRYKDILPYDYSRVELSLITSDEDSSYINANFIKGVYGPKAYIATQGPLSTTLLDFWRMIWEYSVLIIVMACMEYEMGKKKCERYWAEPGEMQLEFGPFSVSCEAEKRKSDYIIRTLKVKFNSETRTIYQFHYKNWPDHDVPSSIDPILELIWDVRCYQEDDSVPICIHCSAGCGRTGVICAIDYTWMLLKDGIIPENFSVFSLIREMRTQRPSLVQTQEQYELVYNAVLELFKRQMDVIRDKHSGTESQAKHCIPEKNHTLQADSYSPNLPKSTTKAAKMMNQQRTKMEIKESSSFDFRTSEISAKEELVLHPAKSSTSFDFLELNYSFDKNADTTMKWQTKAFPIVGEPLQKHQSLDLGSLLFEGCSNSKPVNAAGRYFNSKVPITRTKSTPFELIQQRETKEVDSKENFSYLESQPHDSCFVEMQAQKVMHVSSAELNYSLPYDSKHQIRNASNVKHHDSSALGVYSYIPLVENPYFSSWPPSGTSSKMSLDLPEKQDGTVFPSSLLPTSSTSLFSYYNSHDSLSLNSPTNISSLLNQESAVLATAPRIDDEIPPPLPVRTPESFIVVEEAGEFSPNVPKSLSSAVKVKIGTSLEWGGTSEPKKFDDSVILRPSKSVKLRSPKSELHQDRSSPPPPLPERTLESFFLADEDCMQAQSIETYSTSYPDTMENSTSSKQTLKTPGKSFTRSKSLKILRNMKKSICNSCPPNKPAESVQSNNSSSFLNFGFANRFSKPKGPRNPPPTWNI
# Values joined by “and” are separate entries in the source; they are usually repeats but may differ in a detail not shown here. Identical values can stand only once. The list shows a part of the results, in another mix than the full data. Active and inactive are the calls of the source. No stated cut-off is given here; in the data, active means inhibition above about 50%; inactive means the rest.
# Target: Tyrosine-protein phosphatase non-receptor type 22 (Homo sapiens) (UniProt Q9Y2R2)
# Experiment: PTPN22 lymphoid phosphatase activity blockers – biochemical, fluorescence intensity, uHTS (AID 1779);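 further: plate controls were vehicle with enzyme for no effect and no enzyme for full effect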
# Conditions: recombinant LYP phosphatase, at 11.5 µM, active compounds read high
row,Structure (SMILES),inhibition
1,CCN(N=Nc1nonc1N)c1nonc1N,inactive: -7.4%
2,Nc1cccc2ccc([As](=O)(O)O)cc12,inactive: -2.5%
3,O=[N+]([O-])c1cc([N+](=O)[O-])c(CCN2CCOCC2)c([N+](=O)[O-])c1,inactive: -1%
4,Cc1ccc(NP(=O)(Oc2ccccc2F)Oc2ccccc2F)nc1,inactive: -8.9%
5,Cc1cc(SC(NC(=O)c2ccc(F)cc2)C(Cl)(Cl)Cl)ncn1 (stereo not given),inactive: -5.2%
6,CCOP(=O)(Nc1ccccc1)OCC,inactive: -12.7% and inactive: 0.9%
7,CC(=O)Nc1ccc([As](=O)(O)O)cc1,inactive: -6.4%
8,O=C(O)c1ccccc1[As](=O)(O)O,inactive: -3.8%
9,O=P(Nc1nc2ccc(Cl)cc2s1)(c1ccccc1)c1ccccc1,inactive: -1.8%
10,Nc1cc(N)c2nonc2c1[N+](=O)[O-],inactive: 0.3%
11,CC(C)CC(=O)NC(Sc1ccc(Cl)cc1)C(Cl)(Cl)Cl (stereo not given),inactive: 0.4%
12,O=C(NC(Sc1ccncn1)C(Cl)(Cl)Cl)c1ccccc1 (stereo not given),inactive: -1.4%
13,Cc1c2non([O-])c-2c(C)[n+](=O)[n+]1[O-],inactive: 19.7%
14,Oc1ccccc1CNc1ccccn1,inactive: -11.5%
15,Cc1ccc(OP(=O)(Nc2nccs2)Oc2ccc(C)cc2)cc1,inactive: -3.6%
16,COc1ccccc1OP(=O)(Nc1ccc(C)cn1)Oc1ccccc1OC,inactive: -2.2%
17,CN1CCCC(OC(=O)C(c2ccccc2)c2ccccc2)C1 (stereo not given),inactive: -2.4%
18,Clc1ccc(Cl)c(NC2=NCC(CBr)S2)c1 (stereo not given),inactive: -8.7%
19,NC(=O)c1cc([N+](=O)[O-])cc([N+](=O)[O-])c1N,inactive: -3.9%
20,Cc1ccc(N/C(=N/P(=O)(N2CCOCC2)N2CCOCC2)N2CCOCC2)cc1,inactive: -5.4%
21,CN(C)C(=O)OCCc1n(C)cc[n+]1C,inactive: 2%
22,CC(C)=N/N=C(\N)N[N+](=O)[O-],inactive: -6.6%

row,Structure (SMILES),inhibition
1,CC1CCN(C(=O)Oc2c(Cl)cc(Cl)c3cccnc23)CC1,inactive: -6.6%
2,C[N+]1=C2C=CC=CC=C2SC12C([N+](=O)[O-])=CC([N+](=O)[O-])=C[C-]2[N+](=O)[O-] (stereo not given),inactive: 3.6%
3,Nc1ccc([As](=O)(O)c2ccc(N)cc2)cc1,inactive: -6.8%
4,CCN(/C(=N/P(=O)(N1CCOCC1)N1CCOCC1)N1CCOCC1)c1ccc(OC)cc1,inactive: 2.4%
5,CC(=O)N1C2C3N(C(C)=O)C1C1N(C(C)=O)C(C(N1C(C)=O)N3C(C)=O)N2C(C)=O,inactive: -6.6%
6,O=[N+]([O-])c1cccc2n[nH]nc12,inactive: 2.7%
7,O=[N+]([O-])c1cc([N+](=O)[O-])c(CCNc2ccccc2)c([N+](=O)[O-])c1,inactive: -4.7%
8,CCc1nc2c(n1)c1c(non1O)c1c2no[n+]1[O-],inactive: -6.5%
9,Cc1ccc(NP(=O)(Oc2ccccc2)Oc2ccccc2)nc1,inactive: -2%
10,COc1ccc(C2=NCC(CBr)S2)cc1 (stereo not given),inactive: 0.7%
11,O=[N+]([O-])c1cccc(NC2=NCC(CBr)S2)c1 (stereo not given),inactive: -7.5%
12,O=C(O)CNc1ccc([As](=O)(O)O)cc1,inactive: -6.1%
13,CC(C)(C)C(=O)NC(Sc1ccncn1)C(Cl)(Cl)Cl (stereo not given),inactive: -2%
14,O=[N+]([O-])c1ncn(CCn2ncnc2[N+](=O)[O-])n1,inactive: 2.9%
15,O=C(Nc1cc([As](=O)(O)O)ccc1O)c1ccccc1,inactive: -3.7%
16,C(Cc1nn[nH]n1)Cc1nn[nH]n1,inactive: -5.9%
17,Nc1ccc([As](=O)(O)c2ccc([N+](=O)[O-])cc2)cc1,inactive: -4.2%
18,O=C(OC1CN2CCC1CC2)c1cccc(Cl)c1 (stereo not given),inactive: -1.8%
19,CC(=O)NC(SC(=S)N(C)C)C(Cl)(Cl)Cl (stereo not given),inactive: -4.6%
20,O=[N+]([O-])c1ncn(CCn2cnc([N+](=O)[O-])n2)n1,inactive: -10.8%
21,O=[N+]([O-])c1ccc(O)c(/C=N/Nc2ccc([N+](=O)[O-])cc2[N+](=O)[O-])c1,inactive: -2.8%
22,O=[As](O)(c1ccccc1)c1ccc(O)cc1,inactive: -10.5%

row,Structure (SMILES),inhibition
1,C[C@H]1OP(=O)(Oc2ccccc2)[C@H](O)[C@H](O)[C@H]1N=[N+]=[N-] (stereo not given in full),inactive: -10.1%
2,O=P(Nc1nc2ccccc2s1)(c1ccccc1)c1ccccc1,inactive: -3.8%
3,CN(C)C1(CNC(=O)c2ccc(Cl)c(S(N)(=O)=O)c2)CCCCC1,inactive: -1.3%
4,O=P(Nc1ccccn1)(c1ccc(Br)cc1)c1ccc(Br)cc1,inactive: -6.2%
5,c1nnnn1CCn1cnnn1,inactive: -9.4%
6,O=P(Nc1nccs1)(c1ccccc1)c1ccccc1,inactive: 3.3%
7,CC(C)C(=O)NC(Sc1ccccc1)C(Cl)(Cl)Cl (stereo not given),inactive: -1.6%
8,CC(=O)Nc1ccc(Oc2c([N+](=O)[O-])cc([N+](=O)[O-])cc2[N+](=O)[O-])cc1,inactive: 0.1%
9,CC(=O)Nc1ccc([As](=O)(O)O)c(O)c1,inactive: -5.9%
10,CC(=O)c1ccc(N2CC2c2ccncc2)cc1 (stereo not given),inactive: -3.9%
11,C[C@H]1OP(=O)(Oc2ccccc2)C[C@@H]2O[C@@H]21 (stereo not given in full),inactive: -7%
12,C[C@@H]1C=CCP(=O)(Oc2ccccc2)O1 (stereo not given in full),inactive: -7.9%
13,CC(C)(C)C(=O)NC(Sc1ccccc1)C(Cl)(Cl)Cl (stereo not given),inactive: -2.8%
14,CCOc1ccc(C2=NCC(CBr)S2)cc1 (stereo not given),inactive: -3.2%
15,O=P1(Nc2nc3ccc(Cl)cc3s2)COc2ccccc2O1 (stereo not given),inactive: -1.1%
16,O=c1c2cc([N+](=O)[O-])ccc2[nH]c2c([N+](=O)[O-])cc([N+](=O)[O-])cc12,inactive: -5%
17,CN(C)C(=O)Oc1noc2ccccc12,inactive: -2.8%
18,Cc1ccccc1OP(=O)(Nc1ccccn1)Oc1ccccc1C,inactive: -3.4%
19,CC(=O)NC(SC(=S)N(CC(C)C)CC(C)C)C(Cl)(Cl)Cl (stereo not given),inactive: -4.9%
20,Cc1ccc(OP(=O)(Nc2ccccn2)Oc2ccc(C)cc2)cc1,inactive: -3%
21,COC(=O)c1cc2c(s1)N=C(c1ccccc1)N(C)P2(=O)N1CCOCC1 (stereo not given),inactive: 6%
